Test results published in paper PMC3542791 (The Journal of Cell Biology, 2013).

Columns and labels:
[1] = target: T1, Ndc80p-6xHis/Nuf2p-EGFP subcomplex (budding yeast, UniProt P40460;P33895); assay: SEC
T1 sequence 1: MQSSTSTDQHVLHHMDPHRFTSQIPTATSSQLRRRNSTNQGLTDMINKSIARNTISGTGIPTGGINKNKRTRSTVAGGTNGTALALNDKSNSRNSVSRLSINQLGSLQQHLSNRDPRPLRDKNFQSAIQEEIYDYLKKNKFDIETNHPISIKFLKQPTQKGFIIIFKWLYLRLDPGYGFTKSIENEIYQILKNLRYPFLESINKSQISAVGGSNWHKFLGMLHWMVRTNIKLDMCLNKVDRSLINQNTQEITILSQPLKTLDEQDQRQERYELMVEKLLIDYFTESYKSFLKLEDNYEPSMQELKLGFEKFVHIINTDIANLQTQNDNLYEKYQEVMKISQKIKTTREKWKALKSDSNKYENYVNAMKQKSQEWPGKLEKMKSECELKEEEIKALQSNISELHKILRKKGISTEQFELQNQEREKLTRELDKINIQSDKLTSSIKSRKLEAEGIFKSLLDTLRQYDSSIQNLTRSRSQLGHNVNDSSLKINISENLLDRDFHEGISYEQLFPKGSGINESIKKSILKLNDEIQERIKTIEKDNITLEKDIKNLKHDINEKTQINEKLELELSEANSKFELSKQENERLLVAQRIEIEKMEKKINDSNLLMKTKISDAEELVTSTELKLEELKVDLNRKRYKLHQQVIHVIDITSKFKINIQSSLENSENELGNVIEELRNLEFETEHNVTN
T1 sequence 2: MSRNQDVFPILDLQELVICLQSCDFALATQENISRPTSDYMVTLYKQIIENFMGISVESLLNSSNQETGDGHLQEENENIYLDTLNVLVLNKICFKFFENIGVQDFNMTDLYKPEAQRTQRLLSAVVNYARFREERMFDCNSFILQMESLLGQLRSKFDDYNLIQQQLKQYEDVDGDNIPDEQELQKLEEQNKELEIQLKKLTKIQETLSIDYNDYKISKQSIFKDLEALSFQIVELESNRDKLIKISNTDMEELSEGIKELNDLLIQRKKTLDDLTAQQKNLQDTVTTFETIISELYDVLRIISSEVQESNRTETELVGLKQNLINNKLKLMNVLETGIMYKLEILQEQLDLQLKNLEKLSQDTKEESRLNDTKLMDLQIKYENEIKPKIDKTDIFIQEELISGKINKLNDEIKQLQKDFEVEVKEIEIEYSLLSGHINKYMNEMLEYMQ

[2] = target: T2, Ndc80p Δ256-273-6xHis/Nuf2p-EGFP subcomplex (budding yeast, UniProt P40460;P33895, Δ256-273); assay: SEC
T2 sequence 1: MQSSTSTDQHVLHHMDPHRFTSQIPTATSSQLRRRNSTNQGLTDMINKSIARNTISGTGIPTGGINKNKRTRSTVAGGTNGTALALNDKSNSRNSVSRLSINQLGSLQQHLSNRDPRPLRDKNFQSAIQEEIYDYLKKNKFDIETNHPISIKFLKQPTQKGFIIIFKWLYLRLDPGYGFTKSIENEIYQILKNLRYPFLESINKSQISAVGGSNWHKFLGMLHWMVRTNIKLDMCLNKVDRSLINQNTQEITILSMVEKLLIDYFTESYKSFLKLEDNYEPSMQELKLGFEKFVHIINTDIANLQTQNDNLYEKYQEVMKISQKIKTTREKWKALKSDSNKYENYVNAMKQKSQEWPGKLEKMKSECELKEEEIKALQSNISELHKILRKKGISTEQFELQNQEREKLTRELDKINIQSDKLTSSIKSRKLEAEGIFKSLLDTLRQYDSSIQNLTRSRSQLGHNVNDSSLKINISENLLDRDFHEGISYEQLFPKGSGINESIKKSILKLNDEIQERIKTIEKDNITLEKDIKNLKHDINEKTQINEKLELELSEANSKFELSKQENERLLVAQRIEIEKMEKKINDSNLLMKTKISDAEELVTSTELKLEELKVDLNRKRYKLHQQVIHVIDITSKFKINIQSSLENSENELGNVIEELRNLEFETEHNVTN
T2 sequence 2: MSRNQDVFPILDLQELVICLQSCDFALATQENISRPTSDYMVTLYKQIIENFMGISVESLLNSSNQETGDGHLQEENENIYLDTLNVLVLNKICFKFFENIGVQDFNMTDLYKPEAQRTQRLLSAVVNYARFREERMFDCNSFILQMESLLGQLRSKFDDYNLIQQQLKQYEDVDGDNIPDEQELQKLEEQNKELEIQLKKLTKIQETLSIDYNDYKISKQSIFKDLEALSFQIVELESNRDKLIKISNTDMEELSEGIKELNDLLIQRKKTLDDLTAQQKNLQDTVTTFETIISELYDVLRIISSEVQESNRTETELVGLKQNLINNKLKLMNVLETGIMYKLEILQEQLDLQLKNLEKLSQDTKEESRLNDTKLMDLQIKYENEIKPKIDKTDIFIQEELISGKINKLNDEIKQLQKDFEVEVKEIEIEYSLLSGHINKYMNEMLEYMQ

B1: Spc24p-6xHis/Spc25p subcomplex (complex)
chain 1: MSQKDNLLDNPVEFLKEVRESFDIQQDVDAMKRIRHDLDVIKEESEARISKEHSKVSESNKKLNAERINVAKLEGDLEYTNEESNEFGSKDELVKLLKDLDGLERNIVSLRSELDEKMKLYLKDSEIISTPNGSKIKAKVIEPELEEQSAVTPEANENILKLKLYRSLGVILDLENDQVLINRKNDGNIDILPLDNNLSDFYKTKYIWERLGK
chain 2: MASIDAFSDLERRMDGFQKDVAQVLARQQNHARQQLQQFQAEMRQLHNQHQHLIDELQRLATQRTALQQQIHAAQQATNTTREQWRSYHERESELSRRQSTLAAQSRELDSLLQQRGKECVQLRARWAAQSGNDAAEVALYERLLQLRVLPGASDVHDVRFVFGDDSRCWIEVAMHGDHVIGNSHPALDPKSRATLEHVLTVQGDLAAFLVVARDMLLASL
binding result [1]: binds | binding result [2]: binds
